Results from EP0257993B1, “Nucleic acid fragment encoding herbicide resistant plant acetolactate synthase” (priority 1986, dated 1988).
Where two headings read alike, the source gives them in different places.

Sequences of proteins named here, by UniProt entry; tags and fusion partners are left off. Residues count along the entry.
UniProt P09114, 92-664 P191A/W568L: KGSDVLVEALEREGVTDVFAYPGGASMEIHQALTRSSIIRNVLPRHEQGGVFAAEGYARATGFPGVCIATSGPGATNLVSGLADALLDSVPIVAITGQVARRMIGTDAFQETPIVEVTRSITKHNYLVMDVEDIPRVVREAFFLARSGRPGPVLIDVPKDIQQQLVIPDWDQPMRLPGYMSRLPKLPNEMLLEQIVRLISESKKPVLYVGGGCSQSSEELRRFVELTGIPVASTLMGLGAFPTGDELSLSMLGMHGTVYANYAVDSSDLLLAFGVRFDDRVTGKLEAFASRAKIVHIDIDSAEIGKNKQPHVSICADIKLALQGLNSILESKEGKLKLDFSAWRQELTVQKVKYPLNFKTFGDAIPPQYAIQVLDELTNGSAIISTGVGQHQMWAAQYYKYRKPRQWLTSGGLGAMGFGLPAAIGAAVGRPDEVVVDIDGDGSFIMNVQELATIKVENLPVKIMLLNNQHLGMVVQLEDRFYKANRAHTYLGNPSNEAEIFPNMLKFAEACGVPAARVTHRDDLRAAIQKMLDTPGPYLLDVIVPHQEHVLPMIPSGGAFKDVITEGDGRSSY

Key:
[1] = tested on: herbicide-resistant ALS (tobacco SURB-Hra gene); conditions: Brassica napus Transformant Ro#5
[2] = tested on: tobacco callus; assay: Growth of tobacco mutant callus (C3, S4, Hra) on herbicide; type: cell-based, Nicotiana tabacum var. Xanthi; conditions: C3 cell line (SURA-C3, proline-to-glutamine at position 197)
Procedure: (§1) Callus cultures of sensitive tobacco (Nicotiana tabacum var. Xanthi) were exposed to sulfometuron methyl at 2 ppb according to the method described by Chaleff, U.S. 4,443,971. […] Plants were regenerated from Hra callus cultures. […] ALS activity in extracts of leaves of wild type and homozygous Hra mutant tobacco plants was determined.

[3] = tested on: Cells of N.tabacum cv. W38; assay: Level of chlorsulfuron resistance in transformed N. tabacum colonies; type: cell-based; conditions: for Number of Colonies Actively Growing After One Month on Selective Media: N. tabacum/mutant ALS gene (pAGS152), one hundred colonies plated
[4] = tested on: tobacco callus; conditions: Chlorsulfuron, 10 ppb
Procedure: For plant cell transformations, standard aseptic techniques for the manipulation of sterile media and axenic plant/bacterial cultures were followed, including the use of a laminar flow hood for all transfers. Recipes for media are given in Example VI. Potted tobacco plants for leaf disk infections were grown in a growth chamber maintained for a 12 hr. 24°C day, 12 hr, 20°C night cycle, with approximately 80% relative humidity, under mixed cool white fluorescent and incandescent lights. Tobacco leaf disk infections were carried out essentially by the method of Horsch et al. (1985) Science 227, 1229.
Young leaves, not fully expanded and approximately 4-6 inches in length, were harvested with a scalpel from approximately 4-6 week old tobacco plants (Nicotiana tabacum var. Xanthi). The leaves were surface sterilized for 30 minutes by submerging them in approximately 500 ml of a 10% Chlorox, 0.1% SDS solution and then rinsed 3 times with sterile deionized water. Leaf disks, 6 mm in diameter, were prepared from whole leaves using a sterile paper punch.
Leaf disks were inoculated by submerging them for several minutes in 20 ml of a 1:10 dilution of an overnight Agrobacterium culture carrying the plasmid GCKNT13. Agrobacterium cultures were started by inoculating 10 ml of YEB broth with a single bacterial colony removed form a R-agar plate. The culture was grown for approximately 17-20 hours in 18 mm glass culture tubes in a New Brunswick platform shaker maintained at 28°C.
After inoculation, the leaf disks were placed in petri dishes containing CN agar medium. The dishes were sealed with paraflm and incubated under mixed fluorescent and "Gro and Sho" plant light (General Electric) for 2-3 days in a culture room maintained at approximately 25°C.
[…] Cefotaxime was kept as a frozen 100 mg/ml stock solution and added aseptically (filter sterilized through a 0.45 µm filter) to the media after autoclaving. A fresh kanamycin stock (50 mg/ml) was made for each use and was filter sterilized into the autoclaved media.
Leaf disks were incubated under the growth conditions described above for 3 weeks and then transferred to fresh media of the same composition.
Root formation on selective and non-selective media was recorded within 3 weeks.
Callus growth on selective and non-selective media was recorded within 3 weeks.

[5] = tested on: Brassica napus; assay: Brassica napus plants sprayed with chlorsulfuron; type: in vivo, Brassica napus cv. Olga; conditions: two of the five transformants
[6] = molecular target: T1, ALS (Nicotiana tabacum, UniProt P09114, P191A/W568L); type: biochemical; conditions: homozygous Hra mutant tobacco plants
T1 construct: ALS activity in extracts of leaves of wild type and homozygous Hra mutant tobacco plants was determined; from tissue; host or cells: leaf extracts of homozygous Hra mutant tobacco plants
Procedure: as §1

COc1nc(C)nc(NC(=O)NS(=O)(=O)c2ccccc2Cl)n1 [chlorsulfuron]
Percent Uninhibited ALS Activity ([1]; 1ppb): 88.1%
Percent Uninhibited ALS Activity ([1]; 10ppb): 36.6%
Percent Uninhibited ALS Activity ([1]; 100ppb): 20.1%
Percent Uninhibited ALS Activity ([1]; 1000ppb): 14.5%
selective herbicide resistance conferred by the mutation [2]: conferred resistance
Number of Colonies Actively Growing After One Month on Selective Media ([3]; chlorsulfuron 20 ppb): 100
Number of Colonies Actively Growing After One Month on Selective Media ([3]; chlorsulfuron 50 ppb): 100
Number of Colonies Actively Growing After One Month on Selective Media ([3]; chlorsulfuron 200 ppb): 100
Number of Colonies Actively Growing After One Month on Selective Media ([3]; chlorsulfuron 500 ppb): 100
Number of Colonies Actively Growing After One Month on Selective Media ([3]; chlorsulfuron 2000 ppb): 99
Number of Colonies Actively Growing After One Month on Selective Media ([3]; chlorsulfuron 20000 ppb): 6
level of resistance compared with S4 herbicide-resistant mutant tobacco ([3]; pAGS152 transformants): about ten fold higher
Number of transformed shoot explants producing callus on selective and non-selective media ([4]; EXP. #1, GV3850): 0/10
Number of transformed shoot explants producing callus on selective and non-selective media ([4]; EXP. #1, GVKK): 0/13
Number of transformed shoot explants producing callus on selective and non-selective media ([4]; EXP. #1, GVKNT13): 0/62
Number of transformed shoot explants producing callus on selective and non-selective media ([4]; Exp. #2, GV3850): 0/25
Number of transformed shoot explants producing callus on selective and non-selective media ([4]; Exp. #2, GVKK): 0/23
Number of transformed shoot explants producing callus on selective and non-selective media ([4]; Exp. #2, GVKNT13): 0/102
level of resistance compared with that which is lethal to control (untransformed) plants [5]: about 10 times
resistance of ALS activity in leaf extract compared with wild type plants [6]: about one thousand fold more resistant
